Test results published in PubChem BioAssay AID1224863 (Southern Research Institute, 2016).
This is a selection; strong and weak results do not stand in their true shares. Calls of active or inactive are those of the source.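 Rule for the calls: active = highest signal at least 8 times that of the reference protease inhibitor control at some dose; inactive = the rest.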

Amino acid sequences for entries named in this document (tags omitted). Chains listed by the source or under a name are the forms on record and can include a tag or linker.
UniProt P13569, with tags, fused parts or gaps F508del: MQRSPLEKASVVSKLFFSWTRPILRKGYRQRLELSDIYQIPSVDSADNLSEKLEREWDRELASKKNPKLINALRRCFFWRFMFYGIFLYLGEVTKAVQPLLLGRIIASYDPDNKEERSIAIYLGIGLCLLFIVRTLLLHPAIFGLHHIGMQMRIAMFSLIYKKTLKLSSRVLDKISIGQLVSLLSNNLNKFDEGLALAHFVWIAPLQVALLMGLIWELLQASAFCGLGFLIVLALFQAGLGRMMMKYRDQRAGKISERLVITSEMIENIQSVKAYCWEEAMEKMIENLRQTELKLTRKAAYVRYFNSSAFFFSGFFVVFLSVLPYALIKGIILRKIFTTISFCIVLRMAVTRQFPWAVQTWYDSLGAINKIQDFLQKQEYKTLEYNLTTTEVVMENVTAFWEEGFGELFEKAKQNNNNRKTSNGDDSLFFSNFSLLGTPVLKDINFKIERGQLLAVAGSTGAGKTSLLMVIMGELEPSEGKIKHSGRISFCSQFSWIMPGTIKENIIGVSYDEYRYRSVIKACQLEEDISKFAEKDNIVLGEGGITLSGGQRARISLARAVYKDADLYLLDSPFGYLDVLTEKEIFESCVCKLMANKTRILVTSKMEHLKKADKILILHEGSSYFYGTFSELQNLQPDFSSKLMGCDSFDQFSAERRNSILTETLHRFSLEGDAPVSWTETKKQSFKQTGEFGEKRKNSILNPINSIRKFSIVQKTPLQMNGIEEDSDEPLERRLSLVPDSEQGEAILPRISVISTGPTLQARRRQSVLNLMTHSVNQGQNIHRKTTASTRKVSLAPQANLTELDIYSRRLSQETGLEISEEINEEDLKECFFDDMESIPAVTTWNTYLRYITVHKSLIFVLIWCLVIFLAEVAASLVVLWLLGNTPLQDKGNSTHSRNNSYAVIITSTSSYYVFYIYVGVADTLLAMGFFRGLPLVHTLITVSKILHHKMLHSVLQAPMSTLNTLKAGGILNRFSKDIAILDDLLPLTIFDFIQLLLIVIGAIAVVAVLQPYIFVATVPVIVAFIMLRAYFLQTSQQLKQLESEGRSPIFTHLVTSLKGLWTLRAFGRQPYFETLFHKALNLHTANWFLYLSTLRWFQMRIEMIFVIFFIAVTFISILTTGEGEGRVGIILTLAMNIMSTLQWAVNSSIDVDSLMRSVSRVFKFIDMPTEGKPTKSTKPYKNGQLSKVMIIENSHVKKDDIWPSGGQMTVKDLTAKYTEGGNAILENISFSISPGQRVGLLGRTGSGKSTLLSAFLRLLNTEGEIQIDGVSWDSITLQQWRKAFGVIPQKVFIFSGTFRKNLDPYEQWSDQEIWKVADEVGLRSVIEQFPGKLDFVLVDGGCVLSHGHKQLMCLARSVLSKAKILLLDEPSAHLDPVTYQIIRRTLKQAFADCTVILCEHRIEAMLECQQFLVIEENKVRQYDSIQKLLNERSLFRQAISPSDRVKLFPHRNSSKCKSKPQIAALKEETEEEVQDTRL

These molecules were tested against Cystic fibrosis transmembrane conductance regulator (Homo sapiens) (UniProt P13569) (assay: total CFTR protein upregulators, primary screen, cell-based, HeLa F508del-CFTR, immunofluorescence, viability (AID 1224863)). Details: 24 h, library dosed in µM.

| Structure (SMILES) | outcome |
| --- | --- |
| CN(C)CCS | inactive |
| OCCSCCO | inactive |
| C/C1=C2N=C(/C=C3N=C(/C(C)=C4\[N-]C([C@H](CC(N)=O)[C@@]4(C)CCC(=O)NCC(C)OP(=O)([O-])O[C@@H]4[C@@H](CO)OC(n5cnc6cc(C)c(C)cc65)[C@@H]4O)C4(C)N=C1C(CCC(N)=O)C4(C)CC(N)=O)C(CCC(N)=O)C\3(C)C)C(CCC(N)=O)C/2(C)CC(N)=O.[C-]#N.[Co+3] (some centres undefined) | inactive |
| C/C1=C2N=C(/C=C3N=C(/C(C)=C4\[N-][C@@](C)([C@@H]5N=C1[C@](C)(CCC(=O)NC[C@@H](C)OP(=O)([O-])O[C@H]1[C@@H](O)[C@@H](n6cnc7cc(C)c(C)cc76)O[C@@H]1CO)[C@H]5CC(N)=O)[C@@](C)(CC(N)=O)[C@@H]4CCC(N)=O)[C@@](C)(CC(N)=O)[C@@H]\3CCC(N)=O)C(C)(C)[C@@H]/2CCC(N)=O.[C-]#N.[Co+3] | inactive |
